From patent US8809010B2, “Method for prophylactic treatment of alzheimer's disease using inhibitors of glutaminyl cyclase and glutamate cyclases” (Probiodrug AG, priority 2003, dated 2014)
Like-named read-outs stand apart in the source and are kept apart here. Blank lines part the entries; values can stand above or below the molecule they belong to.

Protein sequences, listed by entry. Tags and fused reporters are not part of them. Residues count along the entry.
UniProt Q16769, 29-361: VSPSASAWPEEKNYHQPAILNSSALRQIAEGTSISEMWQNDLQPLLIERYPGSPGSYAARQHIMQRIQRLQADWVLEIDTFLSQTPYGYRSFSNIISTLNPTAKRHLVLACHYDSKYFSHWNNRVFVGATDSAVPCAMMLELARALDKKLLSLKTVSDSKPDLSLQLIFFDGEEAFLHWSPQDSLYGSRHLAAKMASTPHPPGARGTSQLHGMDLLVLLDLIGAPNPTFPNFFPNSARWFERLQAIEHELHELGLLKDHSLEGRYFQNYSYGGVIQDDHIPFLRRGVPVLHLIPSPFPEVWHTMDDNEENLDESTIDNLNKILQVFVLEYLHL

Molecular target: T1, human QC (Homo sapiens, UniProt Q16769)
T1 construct: The cDNA of the mature QC starting with codon 38 was fused in frame with the plasmid encoded 6× histidine tag; 6xHis; made in house; host or cells: Pichia pastoris X33 (pPICZαB, secreted); also E. coli M15 (pQE-31)
Experiment: Continuous spectrophotometric QC assay (glutamate dehydrogenase coupled), substrate kinetics;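 also: initial rates read on a microplate reader at 30 °C, with enzyme activity quantified against an ammonia calibration curve under the same assay conditions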
Assay type: biochemical
Conditions: for Ki* (mM): for substrate inhibition

[1] = 0.05M Tris-HCl, pH 8.0, 0.5 M KCl

SMILES: CC[C@H](C)[C@H](NC(=O)CNC(=O)[C@H](CC(N)=O)NC(=O)[C@@H](N)CCC(N)=O)C(N)=O [H-Gln-Asn-Gly-Ile-NH2]
kcat: 56.6 ± 0.5 s⁻¹
Ki* (mM): n.i.

SMILES: C[C@H](NC(=O)[C@H](Cc1ccccc1)NC(=O)[C@@H](N)CCC(N)=O)C(N)=O [H-Gln-Phe-Ala-NH2]
kcat: 109 ± 1 s⁻¹
Ki* (mM): n.i.

SMILES: C[C@H](NC(=O)[C@H](Cc1c[nH]c2ccccc12)NC(=O)[C@@H](N)CCC(N)=O)C(N)=O [H-Gln-Trp-Ala-NH2]
kcat: 47.0 ± 0.7 s⁻¹
Ki (mM) (0.05M Tris-HCl, pH 8.0): n.i.
kcat (0.05M Tris-HCl, pH 8.0): 50.8 ± 0.6 s⁻¹
Ki (mM) [1]: n.i.
kcat [1]: 50.0 ± 0.4 s⁻¹
Ki* (mM): n.i.

SMILES: CC(C)C[C@H](NC(=O)[C@H](CC(=O)O)NC(=O)[C@H](CCC(=O)O)NC(=O)[C@@H](N)CCC(N)=O)C(N)=O [H-Gln-Glu-Asp-Leu-NH2]
kcat: 45.8 ± 0.5 s⁻¹
Ki (mM) (0.05M Tris-HCl, pH 8.0): n.i.
kcat (0.05M Tris-HCl, pH 8.0): 46.6 ± 0.5 s⁻¹
Ki (mM) [1]: n.i.
kcat [1]: 45.6 ± 0.5 s⁻¹
Ki* (mM): n.i.

SMILES: NC(=O)CC[C@H](N)C(=O)N[C@@H](Cc1c[nH]cn1)C(=O)N[C@@H](Cc1ccc(O)cc1)C(=O)N[C@@H](Cc1ccccc1)C(N)=O [H-Gln-His-Tyr-Phe-NH2]
kcat: 55.4 ± 0.7 s⁻¹
Ki* (mM): n.i.

SMILES: CC[C@H](C)[C@H](NC(=O)CNC(=O)[C@H](CCCNC(=N)N)NC(=O)[C@@H](N)CCC(N)=O)C(N)=O [H-Gln-Arg-Gly-Ile-NH2]
kcat: 33.5 ± 0.4 s⁻¹
Ki (mM) (0.05M Tris-HCl, pH 8.0): n.i.
kcat (0.05M Tris-HCl, pH 8.0): 31 ± 1 s⁻¹
Ki (mM) [1]: n.i.
kcat [1]: 29.8 ± 0.5 s⁻¹
Ki* (mM): n.i.

SMILES: CC(C)C[C@H](NC(=O)[C@H](CCCNC(=N)N)NC(=O)[C@H](CCCCN)NC(=O)[C@@H](N)CCC(N)=O)C(N)=O [H-Gln-Lys-Arg-Leu-NH2]
kcat: 33.4 ± 0.5 s⁻¹
Ki (mM) (0.05M Tris-HCl, pH 8.0): n.i.
kcat (0.05M Tris-HCl, pH 8.0): 29.4 ± 0.5 s⁻¹
Ki (mM) [1]: n.i.
kcat [1]: 31.6 ± 0.3 s⁻¹
Ki* (mM): n.i.

Further lines, results first:

kcat: 29.6 ± 0.3 s⁻¹
Ki* (mM): n.i.
SMILES: N=C(N)NCCC[C@H](NC(=O)[C@@H](N)CCC(N)=O)C(=O)N[C@@H](Cc1ccc(O)cc1)C(=O)N[C@@H](Cc1ccccc1)C(N)=O [H-Gln-Arg-Tyr-Phe-NH2]

kcat: 42.1 ± 0.4 s⁻¹
Ki* (mM): n.i.
SMILES: C[C@H](NC(=O)[C@H](Cc1ccc(O)cc1)NC(=O)[C@H](CCC(=O)O)NC(=O)[C@@H](N)CCC(N)=O)C(N)=O [H-Gln-Glu-Tyr-Ala-NH2]

kcat: 52.8 ± 0.8 s⁻¹
Ki* (mM): n.i.
SMILES: NC(=O)CC[C@H](N)C(=O)N[C@@H](CO)C(=O)N[C@@H](Cc1ccc(O)cc1)C(=O)N[C@@H](Cc1ccccc1)C(N)=O [H-Gln-Ser-Tyr-Phe-NH2]

kcat: 46 ± 1 s⁻¹
Ki* (mM): n.i.
SMILES: C[C@H](NC(=O)[C@H](C)NC(=O)[C@H](CCC(=O)O)NC(=O)[C@@H](N)CCC(N)=O)C(N)=O [H-Gln-Glu-Ala-Ala-NH2]

kcat: 125 ± 1 s⁻¹
Ki* (mM): n.i.
SMILES: C[C@H](NC(=O)[C@H](Cc1ccc(O)cc1)NC(=O)[C@@H](N)CCC(N)=O)C(=O)O [H-Gln-Tyr-Ala-OH]

kcat: 45.1 ± 0.4 s⁻¹
Ki* (mM): n.i.
SMILES: NC(=O)CC[C@H](N)C(=O)N[C@@H](CCC(=O)O)C(=O)N[C@@H](Cc1ccc(O)cc1)C(N)=O [H-Gln-Glu-Tyr-NH2]

kcat: 41.4 ± 0.4 s⁻¹
Ki* (mM): n.i.
SMILES: NC(=O)CC[C@H](NC(=O)[C@@H](N)CCC(N)=O)C(=O)N[C@@H](Cc1ccc(O)cc1)C(=O)N[C@@H](Cc1ccccc1)C(N)=O [H-Gln-Gln-Tyr-Phe-NH2]

kcat: 46 ± 1 s⁻¹
Ki* (mM): n.i.
SMILES: NC(=O)CC[C@H](N)C(=O)N[C@@H](CCC(=O)O)C(=O)N[C@@H](Cc1ccc(O)cc1)C(=O)N[C@@H](Cc1ccccc1)C(N)=O [H-Gln-Glu-Tyr-Phe-NH2]

kcat: 39 ± 1 s⁻¹
Ki* (mM): n.i.
SMILES: C[C@H](NC(=O)[C@H](CCC(=O)O)NC(=O)[C@@H](N)CCC(N)=O)C(=O)N[C@@H](Cc1ccccc1)C(N)=O [H-Gln-Glu-Ala-Phe-NH2]
